# Data reported in ChEMBL document CHEMBL5375969, “A Novel Bifunctional μOR Agonist and σ1R Antagonist with Potent Analgesic Responses and Reduced Adverse Effects” (2023).
# Amino acid sequences for entries named in this document (tags omitted). Residues count along the entry.
# UniProt P08684, 2-503 limits assumed: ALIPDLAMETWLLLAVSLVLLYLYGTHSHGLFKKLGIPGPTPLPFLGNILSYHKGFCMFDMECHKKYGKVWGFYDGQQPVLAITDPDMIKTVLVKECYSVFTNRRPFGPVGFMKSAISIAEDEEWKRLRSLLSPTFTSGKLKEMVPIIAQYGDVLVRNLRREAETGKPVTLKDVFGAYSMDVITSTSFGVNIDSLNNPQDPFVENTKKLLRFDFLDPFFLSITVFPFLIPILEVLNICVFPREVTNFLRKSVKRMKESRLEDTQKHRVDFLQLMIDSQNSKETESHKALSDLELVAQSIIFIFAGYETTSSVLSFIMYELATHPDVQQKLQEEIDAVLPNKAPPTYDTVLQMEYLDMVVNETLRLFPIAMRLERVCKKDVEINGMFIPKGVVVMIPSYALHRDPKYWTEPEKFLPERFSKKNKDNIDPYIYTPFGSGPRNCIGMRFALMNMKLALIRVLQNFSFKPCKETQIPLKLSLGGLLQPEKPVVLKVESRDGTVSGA
# This is a selection: effects in other tests are not listed, and their absence says nothing.
# Target: Cytochrome P450 3A4 (Homo sapiens, UniProt P08684)
# Test: Inhibition of human CYP3A4 using midazolam as substrate at 10 uM by LC-MS/MS analysis
structure (smiles),measurement,value
CCC(=O)N(CC(CC)N1CCC(c2ccccc2)CC1)c1ccccn1 (stereo unspecified),inhibition (INH),13.1%
